Data published in patent US10804000B2, “High efficiency continuous-flow production of radioisotopes” (priority 2016, dated 2020).

Test: Pre-irradiation solubility tests of lanthanide complexes in the water capture matrix (neutron activation analysis of washes)
Assay type: physicochemical
Conditions: indicates solubility in capture matrix; for % Activity in wash 1: first pre-irradiation wash with 0.5 mL ultra-pure H2O, 153Sm at 103 keV, 166Ho at 81 keV; for % Activity in wash 2: second pre-irradiation wash with H2O
Protocol: The solubility of the lanthanide complexes in the water capture matrix was determined by mixing a few milligrams of the lanthanide-containing target solid thoroughly with 0.5 mL of ultra-pure H2O then separating the solution from the solid utilizing centrifugal filter tubes (EMD Millipore). A second wash of the solid was obtained using the same procedure. The solid and the washes were submitted for neutron activation analysis in order to determine the solubility of the lanthanide containing target in H2O.
Post irradiation, the samples were left to cool for a predetermined amount of time to allow any short-lived radioisotopes to decay, before being transferred to the laboratory for treatment and analysis. The capture matrix was filtered and separated from the solid in order to separate any recoiled radiolanthanide. The solid residue and capture matrix were collected for analysis of the activity of the radiolanthanide. The pre-irradiation solubility test washes along with standards were also prepared for analysis. The samples were analyzed for radiolanthanide activity using a High Purity Germanium detector (HPGe) at the representative gamma energy of the radiolanthanide of interest.
All the samples for a particular compound were irradiated as a group, along with standards for calibration purposes and direct comparisons of activities. In samples that were not treated post irradiation by separation (e.g. as in the case of target and capture matrix) the activity of the radiolanthanide is directly related to the total concentration of the corresponding lanthanide. The count rate measured in each sample was normalized to a single point in time to account for decay during measurements. Both pre-irradiation washes were collected to give an indication of the solubility of the lanthanide complex in the capture matrix (H2O). The second wash was obtained to determine if the lanthanide activity detected in the first wash was actually due to solubility of the lanthanide containing target or due to factors such as impurities or the presence of uncomplexed lanthanide that came off in the first wash. […] Radiolanthanides that recoiled out but reformed bonds with the solid compound would appear as retained as well. […] Activity in the capture matrix may also reflect dissolution of the target matrix rather than recoil.

Question: Which “% Activity in wash 1” value does the source give for “Holmium 8-hydroxyquinolinate [Compound 5]” here?
Answer: The value was 1.4 ± 0.9%.

Question: And the “% Activity in wash 2” value?
Answer: Its value is <1%.

Question: Which results are given for “Samarium 8-hydroxyquinolinate [Compound 4]”?
Answer: % Activity in wash 1: <1%; % Activity in wash 2: <1%
